According to patent US7964104B2, “Active antiseptic water or active water-based fluid, and production method and apparatus for the same” (Japan Techno Co., Ltd., priority 2003, dated 2011):

Tested on: goldfish
Conditions: level of nitrite and sulfite ions in the water

nitrite and sulfite ions
Level at which a danger is posed to goldfish and the like: greater than 0.5 mg/L
Level at which goldfish die: 800 ng/mL
